In ChEMBL document CHEMBL3616415:
pIC50: −log10 of the molar value.

Sequences of proteins named here, by UniProt entry; tags and fusion partners are left off.
UniProt P97266, whole entry, looked up: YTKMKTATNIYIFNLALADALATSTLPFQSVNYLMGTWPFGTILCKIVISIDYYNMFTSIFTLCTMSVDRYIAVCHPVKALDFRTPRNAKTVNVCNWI
UniProt P32300, whole entry, looked up: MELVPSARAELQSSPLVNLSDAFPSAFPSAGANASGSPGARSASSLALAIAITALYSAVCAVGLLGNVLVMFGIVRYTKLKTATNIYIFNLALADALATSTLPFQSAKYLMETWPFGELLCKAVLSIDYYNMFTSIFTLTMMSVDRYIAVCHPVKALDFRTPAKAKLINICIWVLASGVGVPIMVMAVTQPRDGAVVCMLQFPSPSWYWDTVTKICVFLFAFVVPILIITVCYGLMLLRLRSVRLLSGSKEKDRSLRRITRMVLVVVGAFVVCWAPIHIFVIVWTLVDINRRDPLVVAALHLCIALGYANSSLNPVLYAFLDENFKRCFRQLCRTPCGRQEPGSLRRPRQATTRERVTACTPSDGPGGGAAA

Legend:
Mu-type opioid receptor = Mu-type opioid receptor (Cavia porcellus, UniProt P97266); conditions: Ileum
[1] = biological target: Delta-type opioid receptor (Mus musculus, UniProt P32300); assay: Agonist activity at delta opioid receptor in mouse vas deferens assessed as inhibition of electrically stimulated muscle contraction

C[C@H](NC(=O)[C@H](CC(=O)O)NC(=O)[C@@H](N)Cc1ccc(O)cc1)C(=O)NCC(=O)N[C@@H](Cc1ccccc1)C(N)=O
pIC50 (Mu-type opioid receptor): 7.40 | pIC50 [1]: 9.14
